# Source: BindingDB's records for US9598411
# Biological target: Delta-type opioid receptor (Homo sapiens, UniProt P41143)
# Assay: In Vitro ORL-1 Receptor Binding Assay
smiles,measurement,value
NC(=O)/N=c1\[nH]c2ccccc2n1C1CCN(C2CCCCCCC2)CC1,Ki,10 nM
